2 compounds from ChEMBL document CHEMBL4396930, “Identification of new dual FABP4/5 inhibitors based on a naphthalene-1-sulfonamide FABP4 inhibitor” (Bioorg Med Chem, 2019) can be followed below.

Chains of the proteins cited; added tags and fusions are not shown.
UniProt Q01469, whole entry: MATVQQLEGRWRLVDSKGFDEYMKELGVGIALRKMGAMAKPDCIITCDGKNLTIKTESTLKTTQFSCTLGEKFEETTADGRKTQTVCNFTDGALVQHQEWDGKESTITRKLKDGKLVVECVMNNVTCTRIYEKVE

One may read the inhibition as the percentage by which the read-out fell short of the control. Read a low inhibition as a weak effect.

The assay has as its target Fatty acid-binding protein 5 (Homo sapiens, UniProt Q01469). The conditions noted are these: 100 uM.

For `COc1c(-c2ccnn2C)cc(S(=O)(=O)Nc2ccc(F)c(C(=O)O)c2)c2ccccc12`, the inhibition turned out to be 48%. With `COc1c(-c2cncnc2)cc(S(=O)(=O)Nc2ccc(F)c(C(=O)O)c2)c2ccccc12`, the inhibition was 27%.
